Only a part is listed here, and it is no random draw. Active and inactive are the calls of the source. Calls come from the whole dose curve; as a rule, active = well fitted activation curve with a large enough effect; inconclusive = small, poorly fitted or top-dose-only effect; inactive = no such curve, though single readings can be large or run the other way.
Assay: qHTS Assay for NPC1 Promoter Activators;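 note: reporter is driven by a mutant NPC1 promoter; % of control where 0% means no effect; nearly all actives have a fitted effect of over 60% in size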
Settings: Huh7 NPC1 promoter luciferase reporter, 24 h
[1] = at 9.22 µM (top of the series) unless noted

O=[N+]([O-])c1cc([N+](=O)[O-])c(-c2ccn[nH]2)s1
activation [1]: inactive: -3.29%

CCN(CC)C(=S)SC(NC=O)C(Cl)(Cl)Cl (centres undefined)
activation [1]: inactive: -0.132%

CC(C)NC(=O)NP(=O)(Oc1ccccc1)Oc1ccccc1
activation [1]: inactive: -0.246%

CC(C)c1ccc(OP(=O)(Nc2ccccn2)Oc2ccccc2F)cc1 (centres undefined)
activation [1]: inactive: -1.08%

ClCCSc1nnc(-c2cccnc2)o1
activation [1]: inactive: 8.6%

Cc1ccc2nc3c(c(C)c2c1)CC(C(Cl)Cl)S3 (centres undefined)
activation [1]: inactive: 13%

Cc1ccc(OP(=O)(Nc2ccc([N+](=O)[O-])cn2)Oc2ccc(C)cc2)cc1
activation [1]: inactive: -6.66%

COc1cc(C(=O)NCC2(N3CCOCC3)CCCCC2)ccc1OCC(C)C
activation [1]: inactive: -1.63%

C[As](=O)(O)c1cccc(C(=O)O)c1
activation [1]: inactive: -2.41%

O=[As](O)(c1ccc(O)cc1)c1ccccc1O
activation [1]: inactive: -1.91%

COc1ccc(N/C(=N/P(=O)(N2CCOCC2)N2CCOCC2)N2CCOCC2)cc1
activation [1]: inactive: -0.437%

COc1cc(I)ccc1[As](=O)(O)O
activation [1]: inactive: -2.02%

COc1ccc2nc(NP(=O)(c3ccccc3)c3ccccc3)sc2c1
activation [1]: inactive: -3.12%

Cc1cc(=O)[nH]c(N[N+](=O)[O-])n1
activation [1]: inactive: -1.34%

O=C(OC1CN2CCC1CC2)C12CC3CC(CC(C3)C1)C2 (centres undefined)
activation [1]: inactive: -0.0971%

Cc1c2c(nc3ccccc13)SC(C(Cl)Cl)C2 (centres undefined)
activation [1]: inactive: -4.78%

CCC(C)N(CC(C)C)C(=S)SC(NC(C)=O)C(Cl)(Cl)Cl (centres undefined)
activation [1]: inactive: -0.275%

O=C(OC1CN2CCC1CC2)c1cccc([N+](=O)[O-])c1 (centres undefined)
activation [1]: inactive: -4.68%

O=C(Nc1ccncc1[N+](=O)[O-])c1ccc([N+](=O)[O-])cc1[N+](=O)[O-]
activation [1]: inactive: 16.8%

O=C(COc1ccccc1)OC1CN2CCC1CC2 (centres undefined)
activation [1]: inactive: -0.556%

COP1(=S)c2c(C)nn(CCC#N)c2N=C(c2ccc(F)cc2)N1C (centres undefined)
activation [1]: inactive: -1.44%

O=[N+]([O-])c1ccc(Nc2ccc(Oc3ccc([N+](=O)[O-])cc3[N+](=O)[O-])cc2)c([N+](=O)[O-])c1
activation [1]: inactive: -5.12%

O=P(Nc1ccccn1)(c1cccc2ccccc12)c1cccc2ccccc12
activation [1]: inactive: -7.6%

Cc1cc(SC(NC=O)C(Cl)(Cl)Cl)ncn1 (centres undefined)
activation [1]: inactive: 0.892%

CCOC(=O)Nc1cccc([As](=O)(O)O)c1
activation [1]: inactive: -4.04%

Cc1cc(SC(NC(=O)c2ccccc2)C(Cl)(Cl)Cl)nc(C(C)C)n1 (centres undefined)
activation [1]: inactive: -2.42%

CCCCOc1ccc(C(=O)NCC2(N3CCCCC3)CCCCC2)cc1OC
activation [1]: inactive: 0.371%

CCOC(=O)Nc1ccc([As](=O)(O)O)c(O)c1
activation [1]: inactive: -2.18%

O=P1(Nc2ccc(Br)cn2)COc2ccccc2OC1
activation [1]: inactive: 1.62%

NS(=O)(=O)c1cccc(NC(=O)COC(=O)C(O)(c2ccccc2)c2ccccc2)c1
activation [1]: inactive: -2.78%

Cc1ccc(OCC(=O)OC2CN3CCC2CC3)cc1 (centres undefined)
activation [1]: inactive: -2.76%

O=[As](O)(c1cccs1)c1cccs1
activation [1]: inactive: 0.637%

Nc1cccc([As](=O)(O)c2ccccc2)c1
activation [1]: inactive: -2.02%

O=P1(Nc2ncccn2)COc2ccccc2OC1
activation [1]: inactive: 16.3%

O=C(/C=C/c1ccccc1)OC1CN2CCC1CC2 (centres undefined)
activation [1]: inactive: -0.678%

CN(C)C1(CNC(=O)c2ccc(S(C)(=O)=O)cc2)CCCCC1
activation [1]: inactive: -1.89%

CC1CCC(C(C)C)C(OP(=O)(Nc2ccccn2)c2ccccc2)C1 (centres undefined)
activation [1]: inactive: -12.6%

Cc1ccc(C(=O)OC2CN3CCC2CC3)cc1 (centres undefined)
activation [1]: inactive: 2.22%

Cc1nn(-c2ccccc2)c2c1P(=O)(N1CCOCC1)N(C)C(c1ccccc1)=N2 (centres undefined)
activation [1]: inactive: 1.04%

O=[As](O)(c1ccccc1Br)c1ccccc1Br
activation [1]: inactive: -4.19%

CC(C)/C=N\N=C(\N)N[N+](=O)[O-]
activation [1]: inactive: -15%

CN(C(=O)Cc1ccc(Cl)c(Cl)c1)[C@@H]1CCCC[C@H]1N1CCCC1
activation [1]: inactive: -1.34%

COc1ccccc1CNC(=O)COC(=O)C(O)(c1ccccc1)c1ccccc1
activation [1]: inactive: 1.28%

CC(C)(C)C(=O)NC(Sc1ncccn1)C(Cl)(Cl)Cl (centres undefined)
activation [1]: inactive: -2.75%

Clc1n[nH]nc1-c1nn[nH][15n]1
activation [1]: inactive: -2.84%

CN(CCCl)Cc1cc(Cl)c(NC2=NCCN2)c(Cl)c1
activation [1]: inactive: 2.66% [at 46.1 µM]

CCOP(=O)(Nc1ccc(C)cn1)OCC
activation [1]: inactive: 2.24%

CCOP(=O)(NC(=NC(C)c1ccccc1)NC(C)c1ccccc1)OCC (centres undefined)
activation [1]: inactive: 1.53%

O=P1(Nc2ccccn2)COc2ccccc2OC1
activation [1]: inactive: -2.62%

CCC1=CC2Cc3nc4ccc(Cl)cc4c(N)c3C(C1)C2 (centres undefined)
activation [1]: inactive: -1.66%

CCOP(=O)(Nc1cccc2ccccc12)OCC
activation [1]: inactive: -1.45%

COc1cc(C2NCCC3(OCCO3)C2(C)C)cc(OC)c1OC (centres undefined)
activation [1]: inactive: -0.202%

CCCOP(=S)(Nc1nc(N)cc(=O)[nH]1)OCCC
activation [1]: inactive: 0.758%

Cc1ccc(NCCc2c([N+](=O)[O-])cc([N+](=O)[O-])cc2[N+](=O)[O-])cc1
activation [1]: inactive: -1.48%

Nc1cccc2c([As](=O)(O)O)cccc12
activation [1]: inactive: -0.881%

O=[As](O)(c1cccc(O)c1)c1cccc(O)c1
activation [1]: inactive: 3.27%

CS(=O)(=O)c1ccc(Cl)c(NC(=O)COC(=O)C(O)(c2ccccc2)c2ccccc2)c1
activation [1]: inactive: 1.4%

COc1cc(C(=O)NCC2(N3CCOCC3)CCCCC2)cc(Cl)c1OC(C)C
activation [1]: inactive: -3.94%

O=[As](O)(O)c1cccnc1
activation [1]: inactive: -0.436%

CN(C(=O)Cc1ccc(Cl)c(Cl)c1)[C@@H]1CC[C@]2(CCCO2)C[C@H]1N1CCCC1
activation [1]: inactive: -4.93% [at 46.1 µM]

O=C(OC1CN2CCC1CC2)c1ccc(Cl)cc1 (centres undefined)
activation [1]: inactive: -4.76%

O=[N+]([O-])c1ccc2c(c1)nnn2O
activation [1]: inactive: -0.51%

CN(C(=O)Cc1ccccc1)[C@@H]1CC[C@]2(CCCO2)C[C@H]1N1CCCC1
activation (at 9.22 µM (top of the series)): inactive: -3.35% | activation (at 46.1 µM (top of the series)): inactive: -1.52%

CCOP1(=S)c2c(C)nn(CCC#N)c2N=C(c2ccc(F)cc2)N1C (centres undefined)
activation [1]: inactive: 0.357%

N#CCCN(C(=O)COC(=O)C(O)(c1ccccc1)c1ccccc1)c1ccc(F)cc1
activation [1]: inactive: -0.614%

NC(=O)Nc1ccc([As](=O)(O)O)cc1
activation [1]: inactive: -0.0193%

Nc1ccccc1[As](=O)(O)c1ccccc1
activation [1]: inactive: -4.26%

O=C(O)COc1ccc([As](=O)(O)O)cc1[N+](=O)[O-]
activation [1]: inactive: -0.0709%

CS(=O)(=O)c1cc([N+](=O)[O-])c2no[n+]([O-])c2c1
activation [1]: inactive: -3.86%

O=P(Nc1nccs1)(c1ccccc1)c1nc2ccccc2s1 (centres undefined)
activation [1]: inactive: 10.1%

O=P(Nc1nccs1)(Oc1ccccc1)Oc1ccccc1
activation [1]: inactive: 1.05%

CCOP1(=S)c2c(C)nn(CCC#N)c2N=C(c2ccccc2F)N1C (centres undefined)
activation [1]: inactive: -8.18%

CN(C)C(=O)Oc1noc2ccccc12
activation [1]: inactive: -5.3%

O=c1c2cc([N+](=O)[O-])ccc2[nH]c2c([N+](=O)[O-])cc([N+](=O)[O-])cc12
activation [1]: inactive: -42.2%

Cc1ccccc1OP(=O)(Nc1ccccn1)Oc1ccccc1C
activation [1]: inactive: -1.16%

CC(=O)NC(SC(=S)N(CC(C)C)CC(C)C)C(Cl)(Cl)Cl (centres undefined)
activation [1]: inactive: -5.88%

Cc1ccc(OP(=O)(Nc2ccccn2)Oc2ccc(C)cc2)cc1
activation [1]: inactive: -3.04%

COC(=O)c1cc2c(s1)N=C(c1ccccc1)N(C)P2(=O)N1CCOCC1 (centres undefined)
activation [1]: inactive: 7.64%

CCC(=O)N1C2C3N(C(=O)CC)C1C1N(C(=O)CC)C(C(N1C(=O)CC)N3C(=O)CC)N2C(=O)CC
activation [1]: inactive: -2.66%

CN(C(=O)Cc1ccc(Cl)c(Cl)c1)[C@@H]1CCCC[C@@H]1N1CCCC1
activation [1]: inactive: -7.72% [at 46.1 µM]

O=C(OC1CN2CCC1CC2)c1ccccc1 (centres undefined)
activation [1]: inactive: 0.319%

CCNC(=S)/N=C(\N)N[N+](=O)[O-]
activation [1]: inactive: -8.67%

O=C(NC1CCS(=O)(=O)C1)NP(=S)(Oc1ccccc1)Oc1ccccc1 (centres undefined)
activation [1]: inactive: -0.361%

Cc1ccc(NP(=O)(Oc2cccc(C)c2)Oc2cccc(C)c2)nc1
activation [1]: inactive: -3.22%

CCOC(=O)NC(Sc1ccccc1)C(Cl)(Cl)Cl (centres undefined)
activation [1]: inactive: -8.13%

c1ccc(-c2nn[nH]n2)c(-c2nn[nH]n2)c1
activation [1]: inactive: -1.06%

CC(=O)Nc1ccc(Oc2c([N+](=O)[O-])cc([N+](=O)[O-])cc2[N+](=O)[O-])cc1
activation [1]: inactive: -0.394%

CC(=O)Nc1ccc([As](=O)(O)O)c(O)c1
activation [1]: inactive: -4.59%

CC(=O)c1ccc(N2CC2c2ccncc2)cc1 (centres undefined)
activation [1]: inactive: -3.18%

C[C@@H]1C=CCP(=O)(Oc2ccccc2)O1 (some centres undefined)
activation [1]: inactive: 1.27%

C[C@H]1OP(=O)(Oc2ccccc2)C[C@@H]2O[C@@H]21 (some centres undefined)
activation [1]: inactive: -4.56%

Cc1ccccc1CN(C)C(=O)COC(=O)C(O)(c1ccccc1)c1ccccc1
activation [1]: inactive: 4.46%

CC(C)(C)C(=O)NC(Sc1ccccc1)C(Cl)(Cl)Cl (centres undefined)
activation [1]: inactive: -2.04%

CCOc1ccc(C2=NCC(CBr)S2)cc1 (centres undefined)
activation [1]: inactive: 4.14%

O=P1(Nc2nc3ccc(Cl)cc3s2)COc2ccccc2O1 (centres undefined)
activation [1]: inactive: 3.93%

c1nnnn1CCn1cnnn1
activation [1]: inactive: 2.85%

CC(C)C(=O)NC(Sc1ccccc1)C(Cl)(Cl)Cl (centres undefined)
activation [1]: inactive: 1.57%

O=P(Nc1nccs1)(c1ccccc1)c1ccccc1
activation [1]: inactive: 0.497%
